Values quoted from earlier work as cited in PMC9134235 (ACS Omega, 2022).

System: muscarinic receptors
Conditions: 100 μM – 1 mM; cited from earlier work

N=C(N)NC(=O)c1nc(Cl)c(N)nc1N [Amiloride, amiloride]
effect on Emax of acetylcholine: reduction of the Emax
